# Measured affinities in a library of Ab-14 light chain variants

Values reported by Engelhart et al. 2022, doi:10.1038/s41597-022-01779-4 (FLAb copy).

Antigen: PDVDLGDISGINAS, a 14-residue peptide of the SARS-CoV-2 spike HR2 region.

Parent: Ab-14, a human scFv built as VH, three GGGGS repeats, VL. Only the CDRs of the light chain vary.
VH: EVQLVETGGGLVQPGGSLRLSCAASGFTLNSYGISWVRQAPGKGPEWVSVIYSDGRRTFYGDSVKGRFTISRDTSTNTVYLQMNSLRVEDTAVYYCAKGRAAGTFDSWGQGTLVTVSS
VL: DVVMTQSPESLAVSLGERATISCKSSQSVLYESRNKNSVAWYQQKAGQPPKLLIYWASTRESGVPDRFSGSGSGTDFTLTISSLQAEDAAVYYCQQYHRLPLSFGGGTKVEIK

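The parent was found by panning a naive human phage display library on the peptide. Variants in AAYL50 differ from the parent at up to three CDR positions; double and triple changes were sampled at random. The scFvs were displayed on barcoded MATa yeast, the peptide on MATalpha yeast. Mating (16 h, 30 °C) was followed by selection of diploids and sequencing of their barcodes. A regression on co-assayed BCL2-family reference pairs converts the normalised counts of each replicate to an apparent Kd. Each pool was mated in three replicate cultures.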

Substitutions are numbered in sequence along the VL above, starting at 1 (not Kabat). These are single substitutions, in order of position. Numbers give log10(Kd / nM), so 0 is 1 nM and 3 is 1 µM. Smaller is tighter. Replicates are averaged; those with no signal do not enter the mean. Where no diploid with the target was found in any replicate, the entry reads "no signal": below detection, most likely a poor binder, though not proof of it. In this assay the parent's reference entry averaged 0.65; its copy inside this library read 1.68.

{"changes": "S38W", "log10 Kd (nM), mean": "no signal", "replicates with signal": "0 of 3"}
{"changes": "S38P", "log10 Kd (nM), mean": "1.56", "replicates with signal": "3 of 3"}
{"changes": "S38D", "log10 Kd (nM), mean": "2.12", "replicates with signal": "3 of 3"}
{"changes": "S38N", "log10 Kd (nM), mean": "0.74", "replicates with signal": "3 of 3"}
{"changes": "V39L", "log10 Kd (nM), mean": "4.42", "replicates with signal": "1 of 3"}
{"changes": "V39I", "log10 Kd (nM), mean": "0.86", "replicates with signal": "3 of 3"}
{"changes": "V39N", "log10 Kd (nM), mean": "3.45", "replicates with signal": "1 of 3"}
{"changes": "V39S", "log10 Kd (nM), mean": "no signal", "replicates with signal": "0 of 3"}
{"changes": "V39Y", "log10 Kd (nM), mean": "5.09", "replicates with signal": "2 of 3"}
{"changes": "V39Q", "log10 Kd (nM), mean": "no signal", "replicates with signal": "0 of 3"}
{"changes": "V39H", "log10 Kd (nM), mean": "no signal", "replicates with signal": "0 of 3"}
{"changes": "V39T", "log10 Kd (nM), mean": "4.57", "replicates with signal": "2 of 3"}
{"changes": "V39E", "log10 Kd (nM), mean": "5.03", "replicates with signal": "2 of 3"}
{"changes": "V39W", "log10 Kd (nM), mean": "no signal", "replicates with signal": "0 of 3"}
{"changes": "V39R", "log10 Kd (nM), mean": "1.12", "replicates with signal": "3 of 3"}
{"changes": "V39A", "log10 Kd (nM), mean": "no signal", "replicates with signal": "0 of 3"}
{"changes": "V39M", "log10 Kd (nM), mean": "no signal", "replicates with signal": "0 of 3"}
{"changes": "V39D", "log10 Kd (nM), mean": "no signal", "replicates with signal": "0 of 3"}
{"changes": "V39G", "log10 Kd (nM), mean": "4.16", "replicates with signal": "1 of 3"}
{"changes": "V39C", "log10 Kd (nM), mean": "no signal", "replicates with signal": "0 of 3"}
{"changes": "A40Y", "log10 Kd (nM), mean": "no signal", "replicates with signal": "0 of 3"}
{"changes": "A40S", "log10 Kd (nM), mean": "3.89", "replicates with signal": "3 of 3"}

Repeated from above, the 2 best binders with a signal in all replicates:

| changes | log10 Kd (nM), mean | replicates with signal |
|---|---|---|
| S38N | 0.74 | 3 of 3 |
| V39I | 0.86 | 3 of 3 |

Nonspecific signal, from three strains lacking the peptide, appeared in 18% of pairings of library AAYL50, centred on 4.19 (5% of these signals below 2.99); values are not corrected for it.